The values that follow are results of earlier work, collected in US10668052B2, “Combinations of isomers of dihydrotetrabenazine” (ADEPTIO PHARMACEUTICALS LIMITED, priority 2017, dated 2020).

Amino acid sequences for entries named in this document (tags omitted).
UniProt Q01827, whole entry: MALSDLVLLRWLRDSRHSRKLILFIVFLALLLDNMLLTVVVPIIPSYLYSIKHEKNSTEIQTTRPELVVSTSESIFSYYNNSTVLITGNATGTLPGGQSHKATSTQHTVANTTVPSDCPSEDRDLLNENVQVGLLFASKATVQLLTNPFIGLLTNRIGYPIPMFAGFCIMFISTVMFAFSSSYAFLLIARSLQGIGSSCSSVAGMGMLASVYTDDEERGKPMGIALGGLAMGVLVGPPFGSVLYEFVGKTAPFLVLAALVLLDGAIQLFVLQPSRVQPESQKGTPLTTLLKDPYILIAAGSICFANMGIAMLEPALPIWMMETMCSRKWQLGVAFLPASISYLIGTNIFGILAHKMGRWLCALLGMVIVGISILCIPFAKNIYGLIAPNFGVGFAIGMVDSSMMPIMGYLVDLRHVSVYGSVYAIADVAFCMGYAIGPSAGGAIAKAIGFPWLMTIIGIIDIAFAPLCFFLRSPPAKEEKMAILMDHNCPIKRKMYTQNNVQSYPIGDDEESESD

The series concerns the target VMAT2 (Rattus norvegicus, UniProt Q01827). Particulars: cited from earlier work; for activity as a VMAT2 binding agent: source not given.

As to `COc1cc2c(cc1OC)[C@H]1C[C@@H](O)[C@H](CC(C)C)CN1CC2` [(+)-α-DHTBZ, (2R,3R,11bR)-3-isobutyl-9,10-dimethoxy-1,3,4,6,7,11b-hexahydro-2H-pyrido[2,1,a]isoquinolin-2-ol], the VMAT2 binding activity entry (all eight dihydrotetrabenazine isomers, Sun et al.) was “most active”.

For the molecule `COc1cc2c(cc1OC)[C@@H]1C[C@H](O)[C@@H](CC(C)C)CN1CC2` [(−)-α-DHTBZ, (2S,3S,11bS)-3-isobutyl-9,10-dimethoxy-1,3,4,6,7,11b-hexahydro-2H-pyrido[2,1,a]isoquinolin-2-ol], the “activity as a VMAT2 binding agent” value was “essentially active”.

On to `COc1cc2c(cc1OC)[C@H]1C[C@H](O)[C@H](CC(C)C)CN1CC2` [(+)-β-DHTBZ, (2S,3R,11bR)-3-isobutyl-9,10-dimethoxy-1,3,4,6,7,11b-hexahydro-2H-pyrido[2,1,a]isoquinolin-2-ol], for which the “activity as a VMAT2 binding agent” value was “significantly less active than the (+)-α-dihydrotetrabenazine isomer”.
